Values of other authors as cited in patent US20240131064A1, “TREATMENT OF CANCER PATIENTS WITH TUMOR INFILTRATING LYMPHOCYTE THERAPIES IN COMBINATION WITH BRAF INHIBITORS AND/OR MEK INHIBITORS” (Iovance Biotherapeutics, Inc., priority 2020, published 2024).

Details: rhIL-2 lot 10200121 (Cellgenix), 1 mg vial, per COA

## rhIL-2: purified, lyophilized recombinant human interleukin-2 (Cellgenix lot 10200121)
  specific activity: 25×10^6 IU/mg
